US20100028266A1, “Composition and methods for treating allergic response” (Alpha Synergy Development. Inc., priority 2008, published 2010)

What was measured:
[1] = tested on: patient with nasal congestion; conditions: 0.03% Brimonidine nasal spray repeated for one week
[2] = tested on: Lasik patients (Intralase femtosecond laser); conditions: Brimonidine 0.2%, used off label, reported; cited from earlier work
[3] = tested on: eyes of a patient with an ocular condition (baseline redness 4/4); conditions: brimonidine at 0.033%, left eye only, 4 hrs after previous treatment

Q: For `Brc1c(N=C2NCCN2)ccc2nccnc12.O=C(O)C(O)C(O)C(=O)O` [brimonidine, 5-bromo-6-(2-imidazolidinylideneamino)quinoxaline L-tartrate], which rebound [1] is on record?
A: without rebound

Q: What about the flap dislocation rates [2] of the same molecule?
A: 5-10%

Q: What about the “rebound hyperemia after third application” value [3] of the same molecule?
A: without rebound hyperemia
